Experimental data as given in publication PMC4075192 (Drug metabolism and pharmacokinetics, 2013).

Sequences of proteins named here, by UniProt entry; tags and fusion partners are left off. Residues count along the entry.
UniProt P08684, 2-503: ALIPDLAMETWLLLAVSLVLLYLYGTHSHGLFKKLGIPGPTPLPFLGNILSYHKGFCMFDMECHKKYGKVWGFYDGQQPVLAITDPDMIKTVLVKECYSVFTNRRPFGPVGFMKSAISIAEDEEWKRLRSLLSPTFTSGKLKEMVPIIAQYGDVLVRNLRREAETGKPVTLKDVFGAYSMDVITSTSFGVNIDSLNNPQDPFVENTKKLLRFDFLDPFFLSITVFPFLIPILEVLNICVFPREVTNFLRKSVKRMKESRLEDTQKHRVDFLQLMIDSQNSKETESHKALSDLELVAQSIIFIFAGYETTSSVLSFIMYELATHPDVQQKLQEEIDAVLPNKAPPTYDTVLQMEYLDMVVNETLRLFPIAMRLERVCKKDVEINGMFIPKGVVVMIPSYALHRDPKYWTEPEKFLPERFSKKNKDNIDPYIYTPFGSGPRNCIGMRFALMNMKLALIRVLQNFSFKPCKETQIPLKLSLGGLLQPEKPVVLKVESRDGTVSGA

Molecular target: CYP3A (Homo sapiens, UniProt P08684)
Assay: Inhibition of CYP3A
Type: in vitro ADME
Details: pooled HLMs

## O=C1Nc2ccc(Cl)cc2[C@@](C#CC2CC2)(C(F)(F)F)O1 [efavirenz, Efavirenz]
50 μM efavirenz, 10 μM testosterone
  inhibition of CYP3A activity: 40%
Substrate testosterone
  inhibition model: competitive
